# For some of these results: Shown are results outside the selection of highest values, which stands elsewhere. The list shows a part of the results, in another mix than the full data.
# Experiments:
# [1] = test system: HEK293T (UBE3A T485A transfected, BAR Wnt reporter); test: Renilla luciferase signal (cell health) relative to plate median (fold (linear ratio)); higher = higher Renilla signal; conditions: 24 h
# Outline: (§1)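 Wnt activity (firefly/Renilla ratio) and cell health (raw Renilla) were read with Dual-Glo luciferase and median-centred plate by plate. HEK293T cells, at 4500 cells/well in white 384-well plates with DMEM plus 10% FBS at 37°C and 5% CO2, carried a transfected BAR firefly luciferase Wnt reporter, TK-Renilla and an expression plasmid. The chemicals were applied by robot at 0.01–100 uM for 24 h, beginning four hours after transfection, and results were averaged across four biological replicates.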
# [2] = test system: HEK293T (UBE3A T485A transfected, BAR Wnt reporter); test: Wnt reporter firefly/Renilla luciferase ratio relative to plate median (fold (linear ratio)); higher = more Wnt/beta-catenin reporter activation; conditions: 24 h
# Outline: as §1
smiles,measurement,setting,value
CCOc1nc(C(Cl)(Cl)Cl)ns1 [Etridiazole],Renilla luciferase signal,[1]; concentration: 0.01 uM,0.92
same,Renilla luciferase signal,[1]; concentration: 0.1 uM,1.09
same,Renilla luciferase signal,[1]; concentration: 1 uM,1.03
same,Renilla luciferase signal,[1]; concentration: 10 uM,1.12
same,Renilla luciferase signal,[1]; concentration: 100 uM,1.7
same,Wnt reporter firefly/Renilla luciferase ratio,[2]; concentration: 0.01 uM,1.25
same,Wnt reporter firefly/Renilla luciferase ratio,[2]; concentration: 0.1 uM,1.14
same,Wnt reporter firefly/Renilla luciferase ratio,[2]; concentration: 1 uM,0.971
same,Wnt reporter firefly/Renilla luciferase ratio,[2]; concentration: 10 uM,1.07
same,Wnt reporter firefly/Renilla luciferase ratio,[2]; concentration: 100 uM,1.45
